The results in this text go back to patent publication US20110207628A1.

By UniProt entry, the sequences of proteins in these tests, tags left out. Residues count along the entry.
UniProt P50586, 1-242: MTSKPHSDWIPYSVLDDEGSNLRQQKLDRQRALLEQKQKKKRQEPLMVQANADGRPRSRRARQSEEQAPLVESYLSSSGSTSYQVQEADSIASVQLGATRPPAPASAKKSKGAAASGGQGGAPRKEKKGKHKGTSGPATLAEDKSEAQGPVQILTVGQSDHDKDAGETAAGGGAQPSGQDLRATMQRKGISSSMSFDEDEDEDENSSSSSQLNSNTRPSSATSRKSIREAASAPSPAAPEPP

For the experiment, the target named is tubby-N (N-terminus of mouse tubby, 1M-242P), GST-free (mouse) (UniProt P50586). The experiment in a line: clonal phage on immobilized tubby-N, plaque assay.

“Paf1/RNA polymerase II complex component (Rtf1) 69N-186K, phage clone (from UniProt A2AQ19 69-186)”: the Binding to tubby-N (binding specificity of clonal phage vs. control phage) is 6.4 X (fold).
